Amino acid sequences for entries named in this document (tags omitted). Residues count along the entry.
UniProt K0G7C4, 1-1009: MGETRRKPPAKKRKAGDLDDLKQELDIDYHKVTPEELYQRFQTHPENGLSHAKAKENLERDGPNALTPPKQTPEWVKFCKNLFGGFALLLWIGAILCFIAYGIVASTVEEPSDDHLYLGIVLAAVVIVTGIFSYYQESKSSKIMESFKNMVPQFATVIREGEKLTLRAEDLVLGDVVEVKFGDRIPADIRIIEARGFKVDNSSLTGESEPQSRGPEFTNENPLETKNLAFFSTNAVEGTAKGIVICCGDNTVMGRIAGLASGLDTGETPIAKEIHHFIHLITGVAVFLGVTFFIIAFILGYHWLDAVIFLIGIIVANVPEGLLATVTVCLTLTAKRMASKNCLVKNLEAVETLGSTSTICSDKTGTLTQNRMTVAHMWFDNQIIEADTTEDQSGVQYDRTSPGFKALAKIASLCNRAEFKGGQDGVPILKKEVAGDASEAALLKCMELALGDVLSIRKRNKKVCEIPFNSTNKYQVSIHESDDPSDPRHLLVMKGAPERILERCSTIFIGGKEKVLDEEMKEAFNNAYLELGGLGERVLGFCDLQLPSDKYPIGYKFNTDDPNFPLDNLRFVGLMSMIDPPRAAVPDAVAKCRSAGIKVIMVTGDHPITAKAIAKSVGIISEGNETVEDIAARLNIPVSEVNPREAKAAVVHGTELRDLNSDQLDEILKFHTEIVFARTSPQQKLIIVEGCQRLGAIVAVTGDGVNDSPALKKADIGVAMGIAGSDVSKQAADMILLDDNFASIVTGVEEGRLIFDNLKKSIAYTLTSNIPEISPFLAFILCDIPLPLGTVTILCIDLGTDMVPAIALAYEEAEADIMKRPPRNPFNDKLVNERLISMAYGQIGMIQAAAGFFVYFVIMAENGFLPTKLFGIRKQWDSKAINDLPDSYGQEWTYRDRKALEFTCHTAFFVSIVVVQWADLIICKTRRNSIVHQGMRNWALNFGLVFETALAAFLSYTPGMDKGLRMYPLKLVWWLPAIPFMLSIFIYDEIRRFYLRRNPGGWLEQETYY

In publication PMC6172315, “Relative Selectivity of Plant Cardenolides for Na^+/K^+-ATPases From the Monarch Butterfly and Non-resistant Insects” (Frontiers in Plant Science, 2018):

Experiments:
[1] = test system: lamb Na^+/K^+-ATPase; test: Fold differences of IC50 between lamb and insect Na+/K+-ATPases; assay type: biochemical; settings: lamb IC50 inferred from ref Paula et al., 2005; for fold difference between IC50 values, lamb vs adapted insect (D. plexippus) Na^+/K^+-ATPase: Figure 2, first number; for fold difference between IC50 values, lamb vs non-adapted insect (E. core/S. gregaria) Na^+/K^+-ATPase: Figure 2, second number
[2] = target: D. plexippus-Na^+/K^+-ATPase (Danaus plexippus, UniProt K0G7C4); test: In vitro inhibition assay of D. plexippus Na+/K+-ATPase (phosphate release); assay type: biochemical; settings: for fold difference between IC50 values, non-adapted (E. core/S. gregaria) vs adapted (D. plexippus) insect Na^+/K^+-ATPase: Figure 2, last number, S. gregaria values used for ouabain and digitoxigenin

| Compound | fold difference between IC50 values, lamb vs adapted insect (D. plexippus) Na^+/K^+-ATPase [1] | fold difference between IC50 values, lamb vs non-adapted insect (E. core/S. gregaria) Na^+/K^+-ATPase [1] | fold difference between IC50 values of non-adapted insect and D. plexippus-Na^+/K^+-ATPase [2] | fold difference between IC50 values, non-adapted (E. core/S. gregaria) vs adapted (D. plexippus) insect Na^+/K^+-ATPase [2] |
| --- | --- | --- | --- | --- |
| C[C@@H]1O[C@@H](O[C@H]2C[C@@H](O)[C@]3(CO)[C@H]4[C@H](O)C[C@]5(C)[C@@H](C6=CC(=O)OC6)CC[C@]5(O)[C@@H]4CC[C@]3(O)C2)[C@H](O)[C@H](O)[C@H]1O [ouabain, reference compound] | 450 x | 5 x | 94 fold | 94 x |
| C[C@]12CC[C@H](O)C[C@H]1CC[C@@H]1[C@@H]2C[C@@H](O)[C@]2(C)[C@@H](C3=CC(=O)OC3)CC[C@]12O [digoxigenin] | 2240 x | 69 x |  | 32 x |
| CC12CCC(O)CC1CCC1C2CCC2(C)C(C3=CC(=O)OC3)CCC12O (stereo not drawn) [uzarigenin] | 56 x | 16 x | fourfold | 4 x |
| C[C@]12CC[C@H](O)C[C@H]1CC[C@@H]1[C@@H]2CC[C@]2(C)[C@@H](C3=CC(=O)OC3)CC[C@]12O | 229 x | 25 x |  | 9 x |
| CO[C@H]1C[C@H](O[C@H]2CC[C@@]3(C)[C@H](CC[C@@H]4[C@@H]3CC[C@]3(C)[C@@H](C5=CC(=O)OC5)[C@@H](OC(C)=O)C[C@]43O)C2)O[C@@H](C)[C@@H]1O [oleandrin] | 20 x | 5 x | fourfold | 4 x |
